Laboratory results taken from US10967167B2, “Using alternating electric fields to increase permeability of the blood brain barrier” (priority 2018, dated 2021).

Tested on: artificial BBB (cerebEND murine brain capillary endothelial cells)
Settings: 100 kHz alternating electric fields for 72 hours; 4 kDa molecular weight

fluoresceine isothiocyanate coupled to dextran [FITC-dextrans]
permeability of the artificial BBB to FITC-dextrans: 110 % of the control
